This test has as its target Neutrophil collagenase (Homo sapiens, UniProt P22894). Put plainly: Inhibitory concentration against human matrix metalloprotease-8 (human neutrophil collagenase, MMP-8).

By UniProt entry, the sequences of proteins in these tests, tags left out. Where a name states a change or a piece, a line headed by the entry shows the natural chain unless it says otherwise.
UniProt P22894: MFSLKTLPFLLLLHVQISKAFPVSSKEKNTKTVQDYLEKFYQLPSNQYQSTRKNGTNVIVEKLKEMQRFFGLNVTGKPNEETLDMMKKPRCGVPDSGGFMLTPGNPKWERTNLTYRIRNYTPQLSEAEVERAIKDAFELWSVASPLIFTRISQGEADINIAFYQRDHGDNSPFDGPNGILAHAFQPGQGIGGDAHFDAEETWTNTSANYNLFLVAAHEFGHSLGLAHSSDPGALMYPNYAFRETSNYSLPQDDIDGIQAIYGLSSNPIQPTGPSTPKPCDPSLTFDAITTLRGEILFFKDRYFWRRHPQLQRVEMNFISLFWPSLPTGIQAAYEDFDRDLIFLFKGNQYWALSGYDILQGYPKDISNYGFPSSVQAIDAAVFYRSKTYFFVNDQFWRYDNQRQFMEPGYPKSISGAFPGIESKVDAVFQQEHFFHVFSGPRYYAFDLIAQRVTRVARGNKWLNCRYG

This passage reports IC50 results from ChEMBL document CHEMBL1132460, “Affinity and selectivity of matrix metalloproteinase inhibitors: a chemometrical study from the perspective of ligands and proteins” (J Med Chem, 1999).

The IC50 is the point on the concentration scale where inhibition reaches its midpoint. The low end stands for inhibition by little substance, the high end for a need for much substance.

Consider `O=C(NO)[C@H]1Cc2c([nH]c3ccccc23)CN1S(=O)(=O)c1ccc(Oc2ccccc2)cc1`, for which the midpoint of inhibition, the IC50, lay at 8 nM.
